For 1 compound, IC50 results are on record in ChEMBL document CHEMBL2401624, “Synthesis and biological evaluation of novel substituted pyrrolo[1,2-a]quinoxaline derivatives as inhibitors of the human protein kinase CK2” (Eur J Med Chem, 2013).

The chains behind the UniProt entries cited, without tags or fusion partners.
UniProt P19784, whole entry: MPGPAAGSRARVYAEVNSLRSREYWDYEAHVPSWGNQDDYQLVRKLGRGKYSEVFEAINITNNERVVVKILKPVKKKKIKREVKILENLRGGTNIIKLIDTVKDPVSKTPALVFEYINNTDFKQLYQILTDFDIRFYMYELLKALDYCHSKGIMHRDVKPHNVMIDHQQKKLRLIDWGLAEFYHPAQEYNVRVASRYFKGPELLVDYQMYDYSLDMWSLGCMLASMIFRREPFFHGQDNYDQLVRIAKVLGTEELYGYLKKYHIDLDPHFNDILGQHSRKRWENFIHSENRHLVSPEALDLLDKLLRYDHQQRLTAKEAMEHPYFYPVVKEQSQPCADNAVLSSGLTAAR
UniProt P67870, whole entry: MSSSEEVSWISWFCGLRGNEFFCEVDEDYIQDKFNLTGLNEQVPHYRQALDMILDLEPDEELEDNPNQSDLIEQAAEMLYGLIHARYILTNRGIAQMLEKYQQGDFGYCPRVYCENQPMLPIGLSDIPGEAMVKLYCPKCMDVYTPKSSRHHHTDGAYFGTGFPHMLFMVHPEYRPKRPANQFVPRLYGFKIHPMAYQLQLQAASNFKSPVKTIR
UniProt P68400, whole entry: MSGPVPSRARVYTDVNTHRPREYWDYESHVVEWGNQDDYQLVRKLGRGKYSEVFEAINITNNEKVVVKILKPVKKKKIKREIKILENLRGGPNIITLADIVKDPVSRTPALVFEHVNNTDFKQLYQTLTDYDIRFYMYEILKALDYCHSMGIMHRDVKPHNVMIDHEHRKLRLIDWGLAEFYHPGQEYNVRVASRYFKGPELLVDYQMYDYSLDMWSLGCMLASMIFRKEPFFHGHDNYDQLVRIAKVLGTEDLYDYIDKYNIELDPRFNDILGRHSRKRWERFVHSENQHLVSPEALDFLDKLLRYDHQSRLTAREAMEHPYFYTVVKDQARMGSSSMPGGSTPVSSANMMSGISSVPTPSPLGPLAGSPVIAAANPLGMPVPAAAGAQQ

The target of the assay is Casein kinase II (Homo sapiens, UniProt P19784+P67870+P68400). Description: Inhibition of human recombinant CK2 expressed in Escherichia coli BL21(DE3) using RRRDDDSDDD as substrate after 15 mins by capillary electrophoretic analysis.

Molecules are shown by their SMILES.

For `Cc1cc(O)c2c(c1)C(=O)c1cc(O)cc(O)c1C2=O` [EMODIN], the IC50 turned out to be 580 nM.
